{"sequences": {"note": "Chains of the proteins cited; added tags and fusions are not shown. Residues count along the entry.", "UniProt P11362, 22-822": "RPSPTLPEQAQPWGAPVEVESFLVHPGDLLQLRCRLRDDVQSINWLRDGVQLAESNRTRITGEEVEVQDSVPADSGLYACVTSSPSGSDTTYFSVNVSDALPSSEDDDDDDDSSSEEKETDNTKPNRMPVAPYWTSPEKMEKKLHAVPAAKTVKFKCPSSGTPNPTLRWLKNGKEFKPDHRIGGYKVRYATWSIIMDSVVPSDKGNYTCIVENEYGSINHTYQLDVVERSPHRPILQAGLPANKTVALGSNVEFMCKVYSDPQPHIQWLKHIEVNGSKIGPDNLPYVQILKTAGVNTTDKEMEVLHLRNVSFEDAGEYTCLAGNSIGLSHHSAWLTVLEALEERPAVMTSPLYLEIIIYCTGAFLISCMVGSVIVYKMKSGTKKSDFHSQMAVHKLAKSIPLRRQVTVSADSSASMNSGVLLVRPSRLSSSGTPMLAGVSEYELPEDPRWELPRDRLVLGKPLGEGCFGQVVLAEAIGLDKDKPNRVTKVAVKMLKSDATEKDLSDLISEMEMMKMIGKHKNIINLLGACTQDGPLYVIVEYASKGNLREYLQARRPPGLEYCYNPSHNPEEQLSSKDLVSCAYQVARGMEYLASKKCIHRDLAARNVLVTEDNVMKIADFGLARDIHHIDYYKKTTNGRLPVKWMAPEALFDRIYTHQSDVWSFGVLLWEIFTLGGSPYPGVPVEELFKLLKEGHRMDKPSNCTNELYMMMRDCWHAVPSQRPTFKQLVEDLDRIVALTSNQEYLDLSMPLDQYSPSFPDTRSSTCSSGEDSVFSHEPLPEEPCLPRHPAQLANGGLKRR"}, "source": "paper PMC4472506", "about": "(Nature chemical biology, 2015)", "molecular_target": "FGFR1 (Homo sapiens, UniProt P11362)", "experiment": "Biochemical residence time using fluorescence competition", "type": "binding", "settings": "read-out: FGFR1 residence time τ", "data": [{"smiles": "CCN1CCN(c2ccc(Nc3cc(N(C)C(=O)Nc4c(Cl)c(OC)cc(OC)c4Cl)ncn3)cc2)CC1", "note": "[BGJ398]", "values": [{"measurement": "residence time", "value": "114 ± 24", "unit": "min"}]}]}
